According to paper PMC4479705 (mBio, 2015):

Biological target: recombinant factor H binding protein (FHbp) ID 1 (Neisseria meningitidis serogroup B …, UniProt Q9JXV4)
Assay: SPR

B1: control chimeric human-mouse anti-FHbp Fab JAR 5 (Fab, V domains shown)
VH: QVQMQQPGAELVKPGASVKLSCKASGYTFISYWMHWVKQRPGRGLEWIGRIAPDTGIIYYNEKFKNKATLTVDTPSSTAYMQLNSLTSEDSAVYYCARYLKYDGSTYRFDYWGQGTTLTVSS
VL: DIVMTQAAPSVPVTPGESVSISCRSSKSLLHSNGNTYLFWFLQRPGQSPQLLIYRMSNLASGVPDRFSGSGSGTSFTLRISRVEAEDVGVYYCMQHLEYPYTFGGGTKLEIK
- Kd: 0.054 nM
- koff: 0.0005 s⁻¹
- kon: 8.84e+06 M⁻¹ s⁻¹
